# Legend:
# [1] = target: T1, human PAC1 receptor (Homo sapiens, UniProt P41586); experiment: LANCE Ultra cAMP accumulation antagonist assay in SHSY-5Y cells; assay type: cell-based;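 also: inhibition of cAMP accumulation evoked by PAC1 agonist at its EC80 in SHSY-5Y cells endogenously expressing receptor, 30 min preincubation then 15 min agonist, TR-FRET readout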
# T1 construct: SHSY-5Y (human neuroblastoma cell line) and RG-2 (rat glioma cell line) cells endogenously express human and rat PAC1 receptors, respectively; endogenous in cells; host or cells: SHSY-5Y human neuroblastoma cells
# T1 sequence (P41586 21-468): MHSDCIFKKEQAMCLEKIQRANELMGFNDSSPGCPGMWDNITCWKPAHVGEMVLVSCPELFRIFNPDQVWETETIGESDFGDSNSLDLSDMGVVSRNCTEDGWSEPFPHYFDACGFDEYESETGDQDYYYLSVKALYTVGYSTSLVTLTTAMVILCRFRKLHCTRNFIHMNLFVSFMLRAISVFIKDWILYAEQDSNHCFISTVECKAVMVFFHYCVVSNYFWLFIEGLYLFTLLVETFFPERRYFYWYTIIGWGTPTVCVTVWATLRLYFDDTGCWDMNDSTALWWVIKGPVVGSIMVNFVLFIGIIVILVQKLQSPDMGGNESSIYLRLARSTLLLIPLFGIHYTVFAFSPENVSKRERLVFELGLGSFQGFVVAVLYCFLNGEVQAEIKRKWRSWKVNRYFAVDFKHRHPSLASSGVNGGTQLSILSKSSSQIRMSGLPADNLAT
# [2] = target: T2, rat PAC1 receptor (Rattus norvegicus, UniProt P32215); experiment: LANCE Ultra cAMP accumulation antagonist assay in RG-2 cells; assay type: cell-based;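 also: RG-2 rat glioma cells endogenously expressing PAC1, test peptide preincubated 30 min, then PAC1 agonist added at its EC80 for 15 min, cAMP accumulation read by LANCE Ultra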
# T2 construct: SHSY-5Y (human neuroblastoma cell line) and RG-2 (rat glioma cell line) cells endogenously express human and rat PAC1 receptors, respectively; endogenous in cells; host or cells: RG-2 rat glioma cells
# T2 sequence (P32215 20-523): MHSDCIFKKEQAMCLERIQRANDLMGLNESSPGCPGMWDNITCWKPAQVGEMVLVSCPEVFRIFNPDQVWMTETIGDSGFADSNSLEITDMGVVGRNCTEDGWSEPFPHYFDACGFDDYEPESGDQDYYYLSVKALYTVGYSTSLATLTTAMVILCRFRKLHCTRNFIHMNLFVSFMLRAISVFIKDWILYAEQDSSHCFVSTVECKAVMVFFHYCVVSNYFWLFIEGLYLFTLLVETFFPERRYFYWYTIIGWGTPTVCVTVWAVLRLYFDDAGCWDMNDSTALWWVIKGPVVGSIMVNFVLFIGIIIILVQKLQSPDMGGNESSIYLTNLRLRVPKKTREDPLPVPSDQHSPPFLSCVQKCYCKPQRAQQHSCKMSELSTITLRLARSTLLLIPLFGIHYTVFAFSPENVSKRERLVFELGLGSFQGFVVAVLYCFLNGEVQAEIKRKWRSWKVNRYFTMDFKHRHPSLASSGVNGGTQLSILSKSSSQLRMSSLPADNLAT
SMILES,IC50 [1],IC50 [2]
CCCC[C@H](NC(=O)[C@@H]1CSSC[C@H](NC(=O)[C@H](CC(=O)O)NC(=O)[C@H](CC(=O)O)NC(=O)[C@@H](NC(=O)[C@H](C)NC(=O)[C@H](CCCCN)NC(=O)[C@H](CCCNC(=N)N)NC(=O)[C@H](Cc2ccccc2)NC(=O)[C@H](CCC(N)=O)NC(=O)[C@@H]2CSSC[C@H](N)C(=O)N[C@@H](CC(=O)O)C(=O)N[C@@H](C)C(=O)N[C@@H]([C@@H](C)O)C(=O)N2)[C@@H](C)CC)C(=O)N[C@@H](CC(=O)O)C(=O)N[C@@H](CCCCN)C(=O)N[C@@H](CCC(N)=O)C(=O)N[C@@H](C)C(=O)N[C@@H](Cc2c[nH]cn2)C(=O)N[C@@H](Cc2c[nH]cn2)C(=O)N[C@@H](CO)C(=O)N[C@@H](CC(N)=O)C(=O)N[C@@H](C(C)C)C(=O)N2CCC[C@H]2C(=O)NCC(=O)N[C@@H](CO)C(=O)N[C@@H](Cc2ccccc2)C(=O)N[C@@H](CCCCN)C(=O)NC(C)(C)C(=O)N1)C(=O)N[C@@H](CCCCN)C(=O)N[C@@H](CCC(N)=O)C(=O)N[C@@H](CCCCN)C(=O)N[C@@H](CCCCN)C(=O)N[C@@H](CCCCN)C(=O)N[C@@H](CCC(=O)O)C(=O)N[C@@H](Cc1ccccc1)C(=O)N[C@@H](CCCCN)C(N)=O [compound 257],1 to 100 nM,0.01 to 1 nM
CCCC[C@H](NC(=O)[C@@H]1CSSC[C@H](NC(=O)[C@H](CC(=O)O)NC(=O)[C@H](CC(=O)O)NC(=O)[C@@H](NC(=O)[C@H](C)NC(=O)[C@H](CCCCN)NC(=O)[C@H](CCCNC(=N)N)NC(=O)[C@H](Cc2ccccc2)NC(=O)[C@H](CCC(N)=O)NC(=O)[C@@H]2CSSC[C@H](N)C(=O)N[C@@H](CC(=O)O)C(=O)N[C@@H](C)C(=O)N[C@@H]([C@@H](C)O)C(=O)N2)[C@@H](C)CC)C(=O)N[C@@H](CCC(N)=O)C(=O)N[C@@H](CCCCN)C(=O)N[C@@H](CCC(N)=O)C(=O)N[C@@H](C)C(=O)N[C@@H](Cc2c[nH]cn2)C(=O)N[C@@H](Cc2c[nH]cn2)C(=O)N[C@@H](CO)C(=O)N[C@@H](CC(N)=O)C(=O)N[C@@H](C(C)C)C(=O)N2CCC[C@H]2C(=O)NCC(=O)N[C@@H](CC(N)=O)C(=O)N[C@@H](CO)C(=O)N[C@@H](Cc2ccccc2)C(=O)N[C@@H](CCCCN)C(=O)NC(C)(C)C(=O)N1)C(=O)N[C@@H](CCCCN)C(=O)N[C@@H](CCC(N)=O)C(=O)N[C@@H](CCCCN)C(=O)N[C@@H](CCCCN)C(=O)N[C@@H](CCCCN)C(=O)N[C@@H](CCC(=O)O)C(=O)N[C@@H](Cc1ccccc1)C(=O)N[C@@H](CCCCN)C(N)=O [compound 267],1 to 100 nM,0.01 to 1 nM
CC[C@H](C)[C@H](NC(=O)[C@H](C)NC(=O)[C@H](CCCCN)NC(=O)[C@H](CCCNC(=N)N)NC(=O)[C@H](Cc1ccccc1)NC(=O)[C@H](CCC(N)=O)NC(=O)[C@@H]1CSSC[C@H](N)C(=O)N[C@@H](CC(=O)O)C(=O)N[C@@H](C)C(=O)N[C@@H]([C@@H](C)O)C(=O)N1)C(=O)N[C@@H](CC(=O)O)C(=O)N[C@@H](CC(=O)O)C(=O)N[C@H]1CSSC[C@@H](C(=O)N[C@@H](CCSC)C(=O)N[C@@H](CCCCN)C(=O)N[C@@H](CCC(N)=O)C(=O)N[C@@H](CCCCN)C(=O)N[C@@H](CCCCN)C(=O)N[C@@H](CCCCN)C(=O)N[C@@H](CCC(=O)O)C(=O)N[C@@H](Cc2ccccc2)C(=O)N[C@@H](CCCCN)C(N)=O)NC(=O)C(C)(C)NC(=O)[C@H](CCCCN)NC(=O)[C@H](Cc2ccccc2)NC(=O)[C@H](C(C)C)NC(=O)[C@H](CO)NC(=O)CNC(=O)[C@@H]2CCCN2C(=O)[C@H](C(C)C)NC(=O)[C@H](CC(N)=O)NC(=O)[C@H](CO)NC(=O)[C@H](Cc2c[nH]cn2)NC(=O)[C@H](Cc2c[nH]cn2)NC(=O)[C@H](C)NC(=O)[C@H](CCC(N)=O)NC(=O)[C@H](CCCCN)NC(=O)[C@H](CC(=O)O)NC1=O [compound 271],1 to 100 nM,0.01 to 1 nM
CCCC[C@H](NC(=O)[C@@H]1CSSC[C@H](NC(=O)[C@H](CC(=O)O)NC(=O)[C@H](CC(=O)O)NC(=O)[C@@H](NC(=O)[C@H](C)NC(=O)[C@H](CCCCN)NC(=O)[C@H](CCCNC(=N)N)NC(=O)[C@H](Cc2ccccc2)NC(=O)[C@H](CCC(N)=O)NC(=O)[C@@H]2CSSC[C@H](N)C(=O)N[C@@H](CC(=O)O)C(=O)N[C@@H](C)C(=O)N[C@@H]([C@@H](C)O)C(=O)N2)[C@@H](C)CC)C(=O)N[C@@H](CCC(N)=O)C(=O)N[C@@H](CCCCN)C(=O)N[C@@H](CCC(N)=O)C(=O)N[C@@H](C)C(=O)N[C@@H](Cc2c[nH]cn2)C(=O)N[C@@H](Cc2c[nH]cn2)C(=O)N[C@@H](CO)C(=O)N[C@@H](CC(N)=O)C(=O)N[C@@H](C(C)C)C(=O)N2CCC[C@H]2C(=O)NCC(=O)N[C@@H](CO)C(=O)N[C@@H](C(C)C)C(=O)N[C@@H](Cc2ccccc2)C(=O)N[C@@H](CCCCN)C(=O)N[C@@H](CCC(=O)O)C(=O)N1)C(=O)N[C@@H](CCCCN)C(=O)N[C@@H](CCC(N)=O)C(=O)N[C@@H](CCCCN)C(=O)N[C@@H](CCCCN)C(=O)N[C@@H](CCCCN)C(=O)N[C@@H](CCC(=O)O)C(=O)N[C@@H](Cc1ccccc1)C(=O)N[C@@H](CCCCN)C(N)=O [compound 269],1 to 100 nM,1 to 100 nM
CC[C@H](C)[C@H](NC(=O)[C@H](C)NC(=O)[C@H](CCCCN)NC(=O)[C@H](CCCNC(=N)N)NC(=O)[C@H](Cc1ccccc1)NC(=O)[C@H](CCC(N)=O)NC(=O)[C@@H]1CSSC[C@H](N)C(=O)N[C@@H](CC(=O)O)C(=O)N[C@@H](C)C(=O)N[C@@H]([C@@H](C)O)C(=O)N1)C(=O)N[C@@H](CC(=O)O)C(=O)N[C@@H](CC(=O)O)C(=O)N[C@H]1CSSC[C@@H](C(=O)N[C@@H](CCSC)C(=O)N[C@@H](CCCCN)C(=O)N[C@@H](CCC(N)=O)C(=O)N[C@@H](CCCCN)C(=O)N[C@@H](CCCCN)C(=O)N[C@@H](CCCCN)C(=O)N[C@@H](CCC(=O)O)C(=O)N[C@@H](Cc2ccccc2)C(=O)N[C@@H](CCCCN)C(=O)N[C@@H](C)C(=O)NCC(N)=O)NC(=O)C(C)(C)NC(=O)[C@H](CCCCN)NC(=O)[C@H](Cc2ccccc2)NC(=O)[C@H](C(C)C)NC(=O)[C@H](CO)NC(=O)CNC(=O)[C@@H]2CCCN2C(=O)[C@H](C(C)C)NC(=O)[C@H](CC(N)=O)NC(=O)[C@H](CO)NC(=O)[C@H](Cc2c[nH]cn2)NC(=O)[C@H](Cc2ccc(O)cc2)NC(=O)[C@H](C)NC(=O)[C@H](CCC(N)=O)NC(=O)[C@H](CCCCN)NC(=O)[C@H](CCC(N)=O)NC1=O [compound 235],0.01 to 1 nM,0.01 to 1 nM
CC[C@H](C)[C@H](NC(=O)[C@H](C)NC(=O)[C@H](CCCCN)NC(=O)[C@H](CCCNC(=N)N)NC(=O)[C@H](Cc1ccccc1)NC(=O)[C@H](CCC(N)=O)NC(=O)[C@@H]1CSSC[C@H](N)C(=O)N[C@@H](CC(=O)O)C(=O)N[C@@H](C)C(=O)N[C@@H]([C@@H](C)O)C(=O)N1)C(=O)N[C@@H](CC(=O)O)C(=O)N[C@@H](CC(=O)O)C(=O)N[C@H]1CSSC[C@@H](C(=O)N[C@@H](CCSC)C(=O)N[C@@H](CCCCN)C(=O)N[C@@H](CCC(N)=O)C(=O)N[C@@H](CCCCN)C(=O)N[C@@H](CCCCN)C(=O)N[C@@H](CCCCN)C(=O)N[C@@H](CCC(=O)O)C(=O)N[C@@H](Cc2ccccc2)C(=O)N[C@@H](CCCCN)C(N)=O)NC(=O)C(C)(C)NC(=O)[C@H](CCCCN)NC(=O)[C@H](Cc2ccccc2)NC(=O)[C@H](C(C)C)NC(=O)[C@H](CO)NC(=O)[C@H](CC(N)=O)NC(=O)[C@H](CO)NC(=O)[C@H](Cc2c[nH]cn2)NC(=O)[C@H](Cc2c[nH]cn2)NC(=O)[C@H](C)NC(=O)[C@H](CCC(N)=O)NC(=O)[C@H](CCCCN)NC(=O)[C@H](CCC(N)=O)NC1=O [compound 256],1 to 100 nM,1 to 100 nM
CCCC[C@H](NC(=O)[C@@H]1CSSC[C@H](NC(=O)[C@H](CC(=O)O)NC(=O)[C@H](CC(=O)O)NC(=O)[C@@H](NC(=O)[C@H](C)NC(=O)[C@H](CCCCN)NC(=O)[C@H](CCCNC(=N)N)NC(=O)[C@H](Cc2ccccc2)NC(=O)[C@H](CCC(N)=O)NC(=O)[C@@H]2CSSC[C@H](N)C(=O)N[C@@H](CC(=O)O)C(=O)N[C@@H](C)C(=O)N[C@@H]([C@@H](C)O)C(=O)N2)[C@@H](C)CC)C(=O)N[C@@H](CC(=O)O)C(=O)N[C@@H](CCCCN)C(=O)N[C@@H](CCC(N)=O)C(=O)N[C@@H](C)C(=O)N[C@@H](Cc2c[nH]cn2)C(=O)N[C@@H](Cc2c[nH]cn2)C(=O)N[C@@H](CO)C(=O)N[C@@H](CO)C(=O)N[C@@H](C(C)C)C(=O)N[C@@H](Cc2ccccc2)C(=O)N[C@@H](CCCCN)C(=O)N[C@@H](CCC(=O)O)C(=O)N1)C(=O)N[C@@H](CCCCN)C(=O)N[C@@H](CCC(N)=O)C(=O)N[C@@H](CCCCN)C(=O)N[C@@H](CCCCN)C(=O)N[C@@H](CCCCN)C(=O)N[C@@H](CCC(=O)O)C(=O)N[C@@H](Cc1ccccc1)C(=O)N[C@@H](CCCCN)C(N)=O [compound 221],1 to 100 nM,1 to 100 nM
